For five compounds, EC50 and Ki results are on record in patent publication US20120135923A1, “Use of Melanocortins to Treat Dyslipidemia” (IPSEN PHARMA, S.A.S., priority 2009, published 2012).

Sequences of proteins named here, by UniProt entry; tags and fusion partners are left off. A change or cut given only in a name is not applied to a line headed by its entry.
UniProt P32245, whole entry: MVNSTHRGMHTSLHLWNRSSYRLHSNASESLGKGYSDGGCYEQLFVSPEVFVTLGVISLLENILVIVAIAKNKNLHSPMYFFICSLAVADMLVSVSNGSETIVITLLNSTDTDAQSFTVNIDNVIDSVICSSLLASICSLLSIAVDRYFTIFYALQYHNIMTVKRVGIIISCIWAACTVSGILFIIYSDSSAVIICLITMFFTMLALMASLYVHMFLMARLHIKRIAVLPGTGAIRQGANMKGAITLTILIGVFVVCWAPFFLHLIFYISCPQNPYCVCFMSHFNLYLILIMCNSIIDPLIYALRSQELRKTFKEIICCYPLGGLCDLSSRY
UniProt P41968: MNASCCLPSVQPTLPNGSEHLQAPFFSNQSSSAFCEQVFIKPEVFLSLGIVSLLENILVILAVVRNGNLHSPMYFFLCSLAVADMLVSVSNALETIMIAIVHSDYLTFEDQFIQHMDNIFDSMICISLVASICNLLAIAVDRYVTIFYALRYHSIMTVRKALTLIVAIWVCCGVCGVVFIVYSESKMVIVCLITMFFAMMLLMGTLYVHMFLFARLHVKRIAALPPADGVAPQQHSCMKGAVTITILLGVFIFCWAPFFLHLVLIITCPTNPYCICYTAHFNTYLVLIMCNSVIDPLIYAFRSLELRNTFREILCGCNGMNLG
UniProt Q01726: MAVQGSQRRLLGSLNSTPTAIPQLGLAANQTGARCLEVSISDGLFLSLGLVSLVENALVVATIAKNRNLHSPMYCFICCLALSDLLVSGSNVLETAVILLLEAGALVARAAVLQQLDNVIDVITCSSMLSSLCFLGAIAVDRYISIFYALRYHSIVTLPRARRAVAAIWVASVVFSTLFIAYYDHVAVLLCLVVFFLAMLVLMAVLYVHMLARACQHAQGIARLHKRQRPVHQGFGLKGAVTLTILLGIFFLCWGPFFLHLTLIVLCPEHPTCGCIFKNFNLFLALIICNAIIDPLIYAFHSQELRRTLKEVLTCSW

The target in test [1] is T1, hMC4-R (Homo sapiens, UniProt P32245).
T1 construct: expressed in transfected cells; host or cells: CHO-K1
The experiment in a line: cyclic AMP bioassay (ECL) in CHO-K1 cells. The test is classed as cell-based. The note with it: Table 11.

The target in test [2] is T2, hMC3-R (Homo sapiens, UniProt P41968).
T2 construct: expressed in transfected cells; host or cells: CHO-K1
The experiment in a line: Radioligand binding assay, [125I]-NDP-α-MSH competition, CHO-K1 membranes. The note with it: Ki hMC3, Table 7. As to the method:
(§1) Cellular membranes used for the in vitro receptor binding assays were obtained from transgenic CHO-K1 cells stably expressing hMC-R receptor subtypes 1, 3, 4 or 5. […] The pellets were resuspended in the same buffer and centrifuged at 50,000 g for 10 minutes at approximately 4° C. The washed pellets containing the cellular membranes were stored at approximately −80° C.
(§2) Cell membranes (1-10 μg protein/well) prepared as described above were incubated in 50 mM Tris-HCl at pH 7.4 containing 0.2% bovine serum albumin (BSA), 5 mM MgCl2, 1 mM CaCl2 and 0.1 mg/mL bacitracin, with increasing concentrations of the test compound and 0.1-0.3 nM [^25I]-NDP-α-MSH for approximately 90-120 minutes at approximately 37° C. […] Filters were washed three times with 50 mM Tris-HCl at pH 7.4 at a temperature of approximately 0-4° C. and then assayed for radioactivity using a Packard Topcount® scintillation counter. Binding data were analyzed by computer-assisted non-linear regression analysis (XL fit; IDBS).

For test [3], the target named is T3, hMC1-R (Homo sapiens, UniProt Q01726).
T3 construct: expressed in transfected cells; host or cells: CHO-K1
The description is as above. The settings on record: Ki hMC1, Table 7. How it is done: as §1, §2

Test [4] addresses T1, hMC4-R. Described as above. The note with it: Ki hMC4, Table 7. How it is done: as §1, §2

What is called EC50 is the concentration needed to bring the measured effect to its halfway point. In turn, `N=C(N)NCCC[C@@H]1NC(=O)[C@@H](Cc2ccccc2)NC(=O)[C@H](Cc2cnc[nH]2)NC(=O)[C@H](CCC(=O)O)NC(=O)[C@@H](NC(=O)CN2C(=O)CNC2=O)CSSC[C@@H](C(N)=O)NC(=O)[C@H](Cc2c[nH]c3ccccc23)NC1=O` [Hydantoin(C(O)-(Gly-Gly))-c(Cys-Glu-His-D-Phe-Arg-Trp-Cys)-NH2] displayed an EC50 in test [1] of 0.214 nM. A word on the Ki: it is a measure of affinity in units of concentration, obtained from inhibition or displacement. Higher therefore signals lower affinity. On to `CC[C@H](C)[C@@H]1NC(=O)N([C@H]2CSSC[C@@H](C(N)=O)NC(=O)[C@H](Cc3c[nH]c4ccccc34)NC(=O)[C@H](CCCNC(=N)N)NC(=O)[C@@H](Cc3ccccc3)NC(=O)[C@H](Cc3cnc[nH]3)NC(=O)[C@@H](C)NC2=O)C1=O` [c[Hydantoin(C(O)-(Ile-Cys))-D-Ala-His-D-Phe-Arg-Trp-Cys]-NH2], for which, in test [2], the Ki was determined as 1760 nM. With `CCCC[C@@H](C(=O)N[C@H]1CSSC[C@@H](C(N)=O)NC(=O)[C@H](Cc2c[nH]c3ccccc23)NC(=O)[C@H](CCCNC(=N)N)NC(=O)[C@@H](Cc2ccccc2)NC(=O)[C@H](Cc2cnc[nH]2)NC(=O)[C@@H](C)NC1=O)N1C(=O)N[C@@H](C(C)C)C1=O` [Hydantoin(C(O)-(Val-Nle))-c(Cys-D-Ala-His-D-Phe-Arg-Trp-Cys)-NH2], the affinity in test [3], expressed as Ki, was 33.7 nM. Regarding `C[C@H]1NC(=O)[C@@H](NC(=O)CN2C(=O)CNC2=O)CSSC[C@@H](C(N)=O)NC(=O)[C@H](Cc2c[nH]c3ccccc23)NC(=O)[C@H](CCCNC(=N)N)NC(=O)[C@@H](Cc2ccccc2)NC(=O)[C@H](Cc2cnc[nH]2)NC1=O` [Hydantoin(C(O)-(Gly-Gly))-c(Cys-D-Ala-His-D-Phe-Arg-Trp-Cys)-NH2], the figures for the Ki in test [4] and in test [2] were 8.32 nM and 69.7 nM, respectively. `CC(C)[C@@H]1NC(=O)N(CC(=O)N[C@H]2CSSC[C@@H](C(N)=O)NC(=O)[C@H](Cc3c[nH]c4ccccc34)NC(=O)[C@H](CCCNC(=N)N)NC(=O)[C@@H](Cc3ccccc3)NC(=O)[C@H](Cc3cnc[nH]3)NC(=O)[C@@H](C)NC2=O)C1=O` [Hydantoin(C(O)-(Val-Gly))-c(Cys-D-Ala-His-D-Phe-Arg-Trp-Cys)-NH2] yielded a Ki in test [4] of 8.66 nM.
